Reference: ChEMBL document CHEMBL6109111, “Structure-activity relationship analysis of meta-substituted N-cyclopropylmethyl-nornepenthones with mixed KOR/MOR activities” (Eur J Med Chem, 2025)

Sequences of proteins named here, by UniProt entry; tags and fusion partners are left off.
UniProt P33535, whole entry: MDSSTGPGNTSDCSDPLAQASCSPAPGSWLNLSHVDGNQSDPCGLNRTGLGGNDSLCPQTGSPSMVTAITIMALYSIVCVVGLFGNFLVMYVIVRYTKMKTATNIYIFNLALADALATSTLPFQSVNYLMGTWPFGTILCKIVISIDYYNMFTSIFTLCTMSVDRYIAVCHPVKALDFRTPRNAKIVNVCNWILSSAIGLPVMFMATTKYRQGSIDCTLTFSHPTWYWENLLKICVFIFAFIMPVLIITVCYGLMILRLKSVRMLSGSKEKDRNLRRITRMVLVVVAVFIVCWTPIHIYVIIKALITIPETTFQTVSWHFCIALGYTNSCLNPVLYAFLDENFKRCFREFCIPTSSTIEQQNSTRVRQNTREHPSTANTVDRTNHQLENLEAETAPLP
UniProt P41145, whole entry: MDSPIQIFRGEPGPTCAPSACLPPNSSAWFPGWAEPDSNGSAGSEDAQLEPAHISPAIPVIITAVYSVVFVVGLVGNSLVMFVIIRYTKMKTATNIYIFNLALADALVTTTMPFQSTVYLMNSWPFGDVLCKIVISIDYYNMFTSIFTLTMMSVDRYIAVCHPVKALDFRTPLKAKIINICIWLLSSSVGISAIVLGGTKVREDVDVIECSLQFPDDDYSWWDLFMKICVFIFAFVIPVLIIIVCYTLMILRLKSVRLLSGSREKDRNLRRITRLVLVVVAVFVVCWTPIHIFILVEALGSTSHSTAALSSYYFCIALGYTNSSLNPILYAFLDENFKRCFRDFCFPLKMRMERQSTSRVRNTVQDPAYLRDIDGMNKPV
UniProt P33533, whole entry: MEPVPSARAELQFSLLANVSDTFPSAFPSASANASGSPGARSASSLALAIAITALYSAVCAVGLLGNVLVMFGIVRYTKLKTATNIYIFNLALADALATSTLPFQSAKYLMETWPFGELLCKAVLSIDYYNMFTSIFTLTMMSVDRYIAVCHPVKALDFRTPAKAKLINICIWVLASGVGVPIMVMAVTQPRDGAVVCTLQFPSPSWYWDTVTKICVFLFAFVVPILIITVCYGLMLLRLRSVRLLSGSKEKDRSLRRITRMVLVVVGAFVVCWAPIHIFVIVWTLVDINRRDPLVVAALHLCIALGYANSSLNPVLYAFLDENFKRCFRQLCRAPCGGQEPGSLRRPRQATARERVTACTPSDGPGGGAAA

What was measured:
[1] = target: Mu-type opioid receptor (Rattus norvegicus, UniProt P33535); test: Displacement of [3H]-DAMGO from rat MOR expressed in CHO cell membrane assessed as inhibition constant incubated for 30 mins by liquid scintillation counting method
[2] = target: Kappa-type opioid receptor (Homo sapiens, UniProt P41145); test: Displacement of [3H]-U69593 from human KOR expressed in CHO cell membrane assessed as inhibition constant incubated for 30 mins by liquid scintillation counting method
[3] = target: Delta-type opioid receptor (Rattus norvegicus, UniProt P33533); test: Displacement of [3H]-DPDPE from rat DOR expressed in CHO cell membrane assessed as inhibition constant incubated for 30 mins by liquid scintillation counting method

Compound `COc1ccc2c3c1O[C@H]1[C@@]4(OC)C=C[C@@]5(C[C@@H]4C(=O)c4cccc(NC(=O)C6CC6)c4)[C@@H](C2)N(CC2CC2)CC[C@]315` has a Ki [1] of 10.3 nM, a Ki [2] of 141 nM and a Ki [3] of 50.8 nM.
With `COc1ccc2c3c1O[C@H]1[C@@]4(OC)C=C[C@@]5(C[C@@H]4C(=O)c4cccc(N)c4)[C@@H](C2)N(CC2CC2)CC[C@]315` the Ki [1] was 2.3 nM, the Ki [2] was 13.6 nM and the Ki [3] was 330 nM.
For `COc1ccc2c3c1O[C@H]1[C@@]4(OC)C=C[C@@]5(C[C@@H]4C(=O)c4cccc(NC(C)=O)c4)[C@@H](C2)N(CC2CC2)CC[C@]315`, the Ki [1] was 2.2 nM, the Ki [2] was 26.6 nM and the Ki [3] was 184 nM.
